# Antibody variant affinities, Ab-14 heavy chain, assay B

All variants were tested on one target, the spike HR2 peptide PDVDLGDISGINAS (SARS-CoV-2).

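The starting antibody came from a phage panning campaign against this peptide. This is the validation round: designs drawn from the data on random variants, tested in the same kind of assay. Group labels follow the data file (Ctrl: baseline library sampled from a position-specific scoring matrix, with some repeated check sequences; GP: Gaussian process model; HC: hill climbing; a sequence that several methods proposed may carry one label only). AlphaSeq pools MATa yeast showing the antibodies with MATalpha yeast showing the peptide. Binding brings cells together so that they mate, and sequencing counts the barcode pairs among the diploids. Each replicate has its own calibration line, from reference interactions of the BCL2 family. There are six technical replicates.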

Ab-14 is the parent antibody, in scFv form: VH, then three GGGGS repeats, then VL. The light chain is unchanged in all variants.
VH: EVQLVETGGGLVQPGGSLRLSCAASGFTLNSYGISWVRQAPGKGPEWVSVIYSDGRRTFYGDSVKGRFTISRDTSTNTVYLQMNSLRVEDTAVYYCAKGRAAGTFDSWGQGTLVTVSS
VL: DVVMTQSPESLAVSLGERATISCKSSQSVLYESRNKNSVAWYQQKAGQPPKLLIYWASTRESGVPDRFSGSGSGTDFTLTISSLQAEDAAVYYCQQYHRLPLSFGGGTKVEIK

Each variant is given by its three heavy chain CDRs, as the data file delimits them; those of the parent are GFTLNSYGIS, VIYSDGRRTFYGDSVK, GRAAGTFDS.
Values are log10 of the apparent Kd in nM; lower means stronger binding.
Replicates are averaged; those with no signal do not enter the mean.
A pair that was not seen in that replicate is written "n.d."; this usually means weak binding, but a binder can also be missed.

| CDR-H1 | CDR-H2 | CDR-H3 | group | log10 Kd, replicates | log10 Kd (nM), mean | empty controls |
|---|---|---|---|---|---|---|
| RFTLNSYGIS | VIYSDGGRTAYGDSVK | GRAAGTFDS | Ctrl | 1.89 n.d. n.d. n.d. n.d. n.d. | 1.89 | 0/18 |
| GRTLNSYGIS | VIYSDGRRTFYHDSVK | GRATGTFDT | Ctrl | n.d. n.d. n.d. n.d. n.d. n.d. | n.d. | 0/18 |
| GFTLNKYGIS | VIYSDGRRTFYADEVK | GREAGTFDS | Ctrl | 0.45 0.34 0.39 0.40 0.47 0.63 | 0.45 | 3/18 (2.99) |
| GFTLNSYGIS | VIYSDGRRTFYDDSVK | GEEAGTFDS | Ctrl | n.d. -0.19 0.76 -0.26 0.09 0.08 | 0.10 | 0/18 |
| GFTLNSYGIS | VIYSDGVRTFYADSVK | GSAAGRFDS | Ctrl | n.d. n.d. n.d. n.d. n.d. n.d. | n.d. | 1/18 (2.09) |
| GRTLLSYGIS | VIYADGRRTFYSDSVK | GRAAGTFDS | Ctrl | 0.69 0.44 0.76 0.60 0.84 0.54 | 0.64 | 0/18 |
| GFTLNSYGIS | VIYSDGRRTAYGDSVR | GRAAGTFDS | Ctrl | 1.06 1.24 0.58 1.15 0.47 0.88 | 0.90 | 1/18 (2.67) |
| GFNINSQGIS | VIYSDGRRTFYGDSVK | GRAAGTFDS | Ctrl | n.d. n.d. n.d. n.d. 2.12 2.18 | 2.15 | 0/18 |
| GFTLNSYGIS | VIYSDGRRTFYGDSVK | GRAAGVADS | Ctrl | n.d. n.d. n.d. n.d. n.d. n.d. | n.d. | 0/18 |
| GFTLNSYGIH | VIYSDGRRTFYGDSVK | GQNAGNFDV | Ctrl | n.d. n.d. n.d. n.d. n.d. n.d. | n.d. | 0/18 |
| GFTLNSYGIS | VIYSDGRRTFYGDSVK | GRTGGTFDS | Ctrl | 1.79 1.50 1.40 1.08 2.13 1.55 | 1.58 | 0/18 |
| GFNLNSYGIS | VIYSDGRRTGYGDSVK | GRAAGTSDS | Ctrl | n.d. n.d. n.d. n.d. n.d. n.d. | n.d. | 0/18 |
| GFTLNSYGIS | VIYSDGRRTFYGLSVK | GREAGTFDS | Ctrl | n.d. n.d. n.d. n.d. n.d. n.d. | n.d. | 0/18 |
| GFTLNDYGIS | VIYSDGRRTFYGDSVE | GRAAGTFDS | Ctrl | 1.22 1.58 1.03 1.14 1.94 0.81 | 1.29 | 0/18 |
| GFTLNDYGIS | VIYSDGRRTFYGDNVK | GRAAGYFVS | Ctrl | n.d. n.d. n.d. n.d. n.d. n.d. | n.d. | 0/18 |
| GFTLNQYGIS | VIYSDGRRTFYGDSVK | GRAKGTFDS | Ctrl | 0.73 0.74 0.99 0.76 0.72 1.97 | 0.98 | 1/18 (1.41) |
| GFSLNSYGIS | VIYSDGRRTFYLDSVK | GRAAGTFDS | Ctrl | n.d. 1.69 0.92 1.91 n.d. n.d. | 1.51 | 0/18 |
| GRTLNLYGIS | VIYSDGRRTFYGDSVK | GRAAGTFDS | Ctrl | n.d. n.d. n.d. n.d. 1.81 n.d. | 1.81 | 1/18 (3.17) |
| GETLNSYGIS | VIYSDGRRTFYGDSVK | GRAALTFDS | Ctrl | n.d. 3.97 n.d. n.d. n.d. n.d. | 3.97 | 0/18 |
| GFTLNSYGIS | VIYSDGRRTFYGDSVK | GRAAGTFWL | Ctrl | 1.69 n.d. n.d. n.d. n.d. n.d. | 1.69 | 1/18 (1.96) |
| GFTLDSYGIS | VISSDGRRTFYGDSVK | GRAAGTFDS | Ctrl | n.d. n.d. n.d. n.d. n.d. n.d. | n.d. | 0/18 |
| GFNLLEYGIS | VIYSDGRRTFYGDSVK | GRAAGPFDS | Ctrl | n.d. n.d. n.d. n.d. n.d. n.d. | n.d. | 1/18 (1.30) |
| GFTLNSYGIS | VIYSDGRRTFYEDSVK | GSLAKTFDS | Ctrl | n.d. n.d. n.d. n.d. n.d. n.d. | n.d. | 1/18 (1.87) |
| GFTLNSYGIS | VIYSDGRRQFYADMVK | GRAALTFDS | Ctrl | n.d. n.d. n.d. n.d. n.d. n.d. | n.d. | 0/18 |
| GFTLNSYGIS | VIYSDGRRTFYGDSVK | IRHAGAFDD | Ctrl | n.d. n.d. n.d. n.d. n.d. n.d. | n.d. | 2/18 (0.92) |
| GFTHNSYGIS | VIYSDGRRTFYGHSVK | GRAMGTFDS | Ctrl | n.d. n.d. n.d. n.d. n.d. n.d. | n.d. | 0/18 |
| GFTLNMYGIS | VIYSDGRRTFYGDSVK | WRAPGTFDW | Ctrl | n.d. n.d. n.d. n.d. n.d. n.d. | n.d. | 0/18 |
| GFTLNEYGIS | VIYSDGRRTFYGDSVK | GRAADTFDS | Ctrl | n.d. n.d. n.d. n.d. n.d. n.d. | n.d. | 0/18 |
| GFTLNSYGIS | VIYSDGERTFYHDSVK | GRAAGTFDS | Ctrl+GP_HC | 0.67 0.56 0.69 1.29 0.68 1.74; 0.73 0.60 0.36 0.47 0.69 0.47 | 0.75 | 1/36 (2.47) |
| GFTLNSYGIS | VIYSDGRRTFYGDSVK | GFTAGTPDS | Ctrl | n.d. n.d. n.d. n.d. n.d. n.d. | n.d. | 0/18 |
| GFTLESYGIS | VIYSDGRRTYYGDSVK | GRAAGTFDS | Ctrl | 0.92 1.74 1.07 1.17 1.49 1.08 | 1.25 | 0/18 |
| GFTLNDYGIS | VIYSDGRRTSYQDSVK | GRAAGTFDS | Ctrl | 1.43 n.d. n.d. 1.19 1.82 1.90 | 1.59 | 0/18 |
| GVGLNEYGIS | VIYSDGRRTFYGDSVK | GRAAGAFDS | Ctrl | n.d. n.d. n.d. n.d. n.d. 1.96 | 1.96 | 0/18 |
| GFTLNSYGIS | VIYSDGRRTFYSGSVK | TRAAGTFDS | Ctrl | 0.96 1.11 1.74 1.50 0.72 1.62 | 1.27 | 0/18 |
| GETLNTYGIS | VIYSDGRRTMYGDSVK | GQAAGSFDS | Ctrl | n.d. n.d. n.d. n.d. n.d. 2.47 | 2.47 | 1/18 (1.09) |
| GFTLKSYGIS | VIYSDGMRTFYSDSVK | GRYAGTFDS | Ctrl | n.d. 1.21 n.d. 2.11 n.d. 1.84 | 1.72 | 0/18 |
| GFTLNSYGIS | VIYSDGRRTFYQDSVK | GHAAGTFDS | Ctrl | n.d. n.d. n.d. n.d. n.d. n.d. | n.d. | 0/18 |
| GFTLNSYGIS | VIYADGRRTFYGDEVK | GRAAGMFDS | Ctrl | n.d. n.d. n.d. n.d. n.d. n.d. | n.d. | 0/18 |

Repeated from above, the 6 best binders with a signal in all replicates:

| CDR-H1 | CDR-H2 | CDR-H3 | group | log10 Kd, replicates | log10 Kd (nM), mean | empty controls |
|---|---|---|---|---|---|---|
| GFTLNKYGIS | VIYSDGRRTFYADEVK | GREAGTFDS | Ctrl | 0.45 0.34 0.39 0.40 0.47 0.63 | 0.45 | 3/18 (2.99) |
| GRTLLSYGIS | VIYADGRRTFYSDSVK | GRAAGTFDS | Ctrl | 0.69 0.44 0.76 0.60 0.84 0.54 | 0.64 | 0/18 |
| GFTLNSYGIS | VIYSDGERTFYHDSVK | GRAAGTFDS | Ctrl+GP_HC | 0.67 0.56 0.69 1.29 0.68 1.74; 0.73 0.60 0.36 0.47 0.69 0.47 | 0.75 | 1/36 (2.47) |
| GFTLNSYGIS | VIYSDGRRTAYGDSVR | GRAAGTFDS | Ctrl | 1.06 1.24 0.58 1.15 0.47 0.88 | 0.90 | 1/18 (2.67) |
| GFTLNQYGIS | VIYSDGRRTFYGDSVK | GRAKGTFDS | Ctrl | 0.73 0.74 0.99 0.76 0.72 1.97 | 0.98 | 1/18 (1.41) |
| GFTLESYGIS | VIYSDGRRTYYGDSVK | GRAAGTFDS | Ctrl | 0.92 1.74 1.07 1.17 1.49 1.08 | 1.25 | 0/18 |

The parent sequence was in this pool as ten entries: three were never detected, three once, and four in most replicates, with averages from 0.34 to 2.37.
A sequence that the file lists under several names has all its replicates listed entry by entry, parted by semicolons.
The authors averaged sequences with at least three values out of six and counted those with two or fewer as poor binders.
Values of this round are not directly comparable with the first-round values of the same sequences.
As a blank, each scFv also met three strains without target: over all heavy chain designs, 1% of these pairings were detected, typically at 2.08 and seldom below 0.84. For each scFv, signals with the empty controls are counted beside the result, with their mean in brackets.

From the AlphaSeq antibody data of Li et al. 2023 (doi:10.1038/s41467-023-39022-2), copy in the FLAb collection.